# Test results as given in publication PMC12214610.
# Chains of the proteins cited; added tags and fusions are not shown. Chains listed by the source or under a name are the forms on record and can include a tag or linker.
# Serine/threonine-protein phosphatase 2A catalytic subunit alpha isoform, one chain, as listed by the source: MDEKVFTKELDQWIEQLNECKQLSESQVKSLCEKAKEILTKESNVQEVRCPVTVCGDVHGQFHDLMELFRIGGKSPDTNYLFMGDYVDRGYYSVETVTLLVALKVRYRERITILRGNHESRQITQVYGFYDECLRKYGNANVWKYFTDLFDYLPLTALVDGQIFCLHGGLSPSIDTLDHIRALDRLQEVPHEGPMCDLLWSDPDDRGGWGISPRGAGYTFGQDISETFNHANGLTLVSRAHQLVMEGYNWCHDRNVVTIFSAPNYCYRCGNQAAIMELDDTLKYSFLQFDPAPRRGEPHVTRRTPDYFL
# Key:
# [1] = biological target: T1, Serine/threonine-protein phosphatase 2A 55 kDa regulatory subunit B alpha isoform (UniProt P63151)
# T1 sequence: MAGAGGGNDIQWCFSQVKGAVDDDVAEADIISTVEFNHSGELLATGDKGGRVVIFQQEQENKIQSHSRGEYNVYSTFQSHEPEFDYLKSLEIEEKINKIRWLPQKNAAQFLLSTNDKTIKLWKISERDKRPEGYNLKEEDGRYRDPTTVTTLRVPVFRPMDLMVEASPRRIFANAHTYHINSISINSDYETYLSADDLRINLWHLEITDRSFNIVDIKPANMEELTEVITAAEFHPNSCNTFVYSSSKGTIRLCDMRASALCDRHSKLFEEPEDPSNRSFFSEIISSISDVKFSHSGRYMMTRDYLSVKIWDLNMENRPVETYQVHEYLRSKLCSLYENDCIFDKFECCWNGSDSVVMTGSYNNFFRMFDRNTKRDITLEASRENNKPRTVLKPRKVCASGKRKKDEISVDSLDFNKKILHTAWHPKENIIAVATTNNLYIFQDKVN
# [2] = tested on: Serine/threonine-protein phosphatase 2A catalytic subunit alpha isoform
substance,measurement,setting,value
Serine/threonine-protein phosphatase 2A 65 kDa regulatory subunit A alpha isoform,listed as a hit,[1],yes
same,listed as a hit,[2],yes
